Results as given in article PMC5601360 (Journal of Medicinal Chemistry, 2017).

Target: T1, human KOP receptor (Homo sapiens, UniProt P41145)
T1 construct: expressed in transfected cells; host or cells: CHO-hKOP cells (gift of Dr. Lawrence Toll, SRI International)
Assay: Competition binding assay, CHO-hKOP cell membranes, [3H]U69,593
Conditions: for selectivity DOP/KOP: Ki ratio DOP/KOP; for selectivity MOP/KOP: Ki ratio MOP/KOP
Description: CHO cells stably expressing recombinant human KOP, MOP, or DOP receptors (CHO-hKOP, CHO-hMOP, and CHO-hDOP cell lines) were kindly provided by Dr. Lawrence Toll (SRI International, Menlo Park, CA). The CHO-hKOP cell line was maintained in Dulbecco’s Minimal Essential Medium (DMEM) supplemented with fetal bovine serum (FBS, 10%), penicillin/streptomycin (0.1%), L-glutamine (2 mM), and geneticin (400 μg/mL). The CHO-hMOP and CHO-hDOP cell lines were maintained in DMEM/Ham’s F-12 medium supplemented with FBS (10%), penicillin/streptomycin (0.1%), L-glutamine (2 mM), and geneticin (400 μg/mL). Cell cultures were maintained at 37 °C in 5% CO2 humidified air.
. Nonspecific binding was determined using 1–10 μM of the unlabeled counterpart of each radioligand. Assays were performed in 50 mM Tris-HCl buffer (pH 7.4) in a final volume of 1 mL. Cell membranes (15–20 μg) were incubated with the appropriate radioligand and various concentrations of test compound for 60 min at 25 °C. After incubation, reactions were terminated by rapid filtration through Whatman glass fiber filters. Filters were washed three times with 5 mL of ice-cold 50 mM Tris-HCl buffer (pH 7.4) using a Brandel M24R cell harvester (Gaithersburg, MD). Radioactivity retained on the filters was counted by liquid scintillation counting using a Beckman Coulter LS6500 (Beckman Coulter Inc., Fullerton, CA). All binding experiments were performed in duplicate and repeated at least three times. The inhibitory constant Ki values (in nM) were calculated from the competition binding curves by nonlinear regression analysis and the Cheng–Prusoff equation.[16]

## Cl.Oc1cccc(CCN(CCc2ccccc2)CC2CCCCC2)c1F [Compound 19, 3-[2-[(Cyclohexylmethyl)(phenethyl)amino]ethyl]-2-fluorophenol Hydrochloride]
  selectivity DOP/KOP: >250000
  selectivity MOP/KOP: 21275

## Cl.Oc1ccc(CCN(CCc2cccc(O)c2)CC2CCCCC2)cc1 [Compound 15, 3-[2-[(Cyclohexylmethyl)(4-hydroxyphenethyl)amino]ethyl]phenol Hydrochloride]
  selectivity DOP/KOP: 885
  selectivity MOP/KOP: 126
